The target of data set [1] is T1, mouse glucagon receptor (mGcg-R) (Mus musculus, UniProt Q61606).
T1 construct: expressed in transfected cells; crude plasma membranes
The data set is described as follows: Radioligand competition binding (SPA), mGcg-R membranes. The following applies: mean ± SEM.

Sequences of proteins named here, by UniProt entry; tags and fusion partners are left off. Residues count along the entry.
UniProt Q61606, 27-485: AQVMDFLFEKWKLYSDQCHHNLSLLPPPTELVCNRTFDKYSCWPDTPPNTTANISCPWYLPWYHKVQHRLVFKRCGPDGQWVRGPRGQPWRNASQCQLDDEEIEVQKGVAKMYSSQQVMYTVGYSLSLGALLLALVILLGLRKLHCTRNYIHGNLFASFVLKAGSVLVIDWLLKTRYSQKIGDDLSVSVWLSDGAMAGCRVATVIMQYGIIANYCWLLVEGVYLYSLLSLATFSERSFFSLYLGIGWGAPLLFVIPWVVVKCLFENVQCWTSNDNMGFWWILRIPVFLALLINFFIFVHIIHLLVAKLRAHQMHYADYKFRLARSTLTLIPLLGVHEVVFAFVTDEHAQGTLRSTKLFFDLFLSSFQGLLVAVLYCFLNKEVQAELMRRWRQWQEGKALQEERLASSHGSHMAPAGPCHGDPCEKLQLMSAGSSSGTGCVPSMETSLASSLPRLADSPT
UniProt P47871, 26-477: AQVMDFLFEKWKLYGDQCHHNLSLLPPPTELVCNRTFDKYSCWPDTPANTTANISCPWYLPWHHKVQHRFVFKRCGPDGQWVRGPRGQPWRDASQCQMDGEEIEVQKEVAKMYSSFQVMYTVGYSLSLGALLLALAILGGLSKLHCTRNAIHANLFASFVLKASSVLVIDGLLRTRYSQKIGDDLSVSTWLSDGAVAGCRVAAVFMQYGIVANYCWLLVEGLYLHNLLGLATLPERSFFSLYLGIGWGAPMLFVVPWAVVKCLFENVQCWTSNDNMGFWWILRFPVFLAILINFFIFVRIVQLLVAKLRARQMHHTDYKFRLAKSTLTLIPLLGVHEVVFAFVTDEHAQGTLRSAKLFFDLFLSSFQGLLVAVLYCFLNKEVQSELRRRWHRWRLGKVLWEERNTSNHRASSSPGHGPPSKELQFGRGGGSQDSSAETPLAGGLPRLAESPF
UniProt P30082, 27-485: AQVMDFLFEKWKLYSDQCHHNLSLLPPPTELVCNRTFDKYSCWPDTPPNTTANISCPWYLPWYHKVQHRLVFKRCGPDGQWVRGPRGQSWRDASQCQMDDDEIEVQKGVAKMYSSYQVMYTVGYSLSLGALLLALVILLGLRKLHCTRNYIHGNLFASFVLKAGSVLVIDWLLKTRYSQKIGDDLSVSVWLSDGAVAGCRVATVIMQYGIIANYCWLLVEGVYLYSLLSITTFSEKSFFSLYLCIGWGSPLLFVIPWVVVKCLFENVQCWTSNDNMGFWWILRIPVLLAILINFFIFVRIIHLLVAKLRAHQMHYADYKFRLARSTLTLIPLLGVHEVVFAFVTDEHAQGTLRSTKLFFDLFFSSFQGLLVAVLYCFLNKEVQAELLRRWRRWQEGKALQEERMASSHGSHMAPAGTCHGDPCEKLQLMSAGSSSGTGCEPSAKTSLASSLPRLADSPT
UniProt P43220, 24-463: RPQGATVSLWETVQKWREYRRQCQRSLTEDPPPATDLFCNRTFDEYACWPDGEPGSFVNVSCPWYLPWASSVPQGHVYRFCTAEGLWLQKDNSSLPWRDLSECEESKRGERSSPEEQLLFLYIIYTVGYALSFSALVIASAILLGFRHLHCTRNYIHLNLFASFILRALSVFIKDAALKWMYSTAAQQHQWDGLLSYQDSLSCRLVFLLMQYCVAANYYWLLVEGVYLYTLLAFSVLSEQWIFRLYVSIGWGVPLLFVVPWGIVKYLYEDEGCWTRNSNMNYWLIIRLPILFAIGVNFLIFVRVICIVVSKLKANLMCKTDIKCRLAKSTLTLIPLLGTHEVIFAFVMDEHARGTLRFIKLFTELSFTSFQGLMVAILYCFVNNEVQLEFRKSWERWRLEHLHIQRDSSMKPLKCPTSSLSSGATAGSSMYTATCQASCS

Data set [2] addresses T2, human glucagon receptor (hGcg-R) (Homo sapiens, UniProt P47871). The data set is described as follows: hGcg-R functional cAMP assay. In kind it is cell-based. Further details: expressed in transfected cells; host or cells: 293HEK, plasmid phD, hygromycin selection. On the technique in general: Cyclic AMP is a second messenger, typically raised through Gs and lowered through Gi signalling.

The target of data set [3] is T3, rat glucagon receptor (rGcg-R) (Rattus norvegicus, UniProt P30082).
T3 construct: expressed in transfected cells; host or cells: 293HEK, transient (48 h), pcDNA3.1-ZeoR; crude plasma membranes
The data set can be described thus: Radioligand competition binding (SPA), rGcg-R membranes. Particulars: mean ± SEM.

For data set [4], the target named is T4, hGIP-R (Homo sapiens, UniProt P48546).
T4 construct: expressed in transfected cells; host or cells: CHO-S (Chinese Hamster Ovary, suspension), pcDNA3.1-NeoR, Geneticin selection
T4 sequence (P48546 22-466): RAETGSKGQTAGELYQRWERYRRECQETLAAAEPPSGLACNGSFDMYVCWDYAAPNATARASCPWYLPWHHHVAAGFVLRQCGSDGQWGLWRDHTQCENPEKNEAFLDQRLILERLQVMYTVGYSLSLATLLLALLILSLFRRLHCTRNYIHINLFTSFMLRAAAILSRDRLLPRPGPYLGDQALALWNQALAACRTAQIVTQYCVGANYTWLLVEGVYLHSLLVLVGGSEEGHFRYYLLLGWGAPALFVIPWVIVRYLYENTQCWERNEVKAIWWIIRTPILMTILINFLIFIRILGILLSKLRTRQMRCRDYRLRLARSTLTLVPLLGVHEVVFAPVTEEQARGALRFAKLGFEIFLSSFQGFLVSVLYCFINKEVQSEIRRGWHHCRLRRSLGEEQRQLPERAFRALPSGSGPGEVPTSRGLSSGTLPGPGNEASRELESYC
The data set is described as follows: hGIP-R functional cAMP assay. In kind it is cell-based.

Data set [5] addresses T2, human glucagon receptor (hGcg-R). The data set is described as follows: Radioligand competition binding (SPA), hGcg-R membranes. Further details: expressed in transfected cells; crude plasma membranes. Particulars: mean ± SEM. Background: Loss of bound radioactivity is the signal in a displacement assay; it reports binding, not function.
In data set [6] the target is human Glucagon-Like Peptide-1 receptor (hGLP-1R) (Homo sapiens, UniProt P43220). The data set can be described thus: hGLP-1-R functional cAMP assay.
Data set [7] is described as follows: Pharmacokinetics in Rats. Format: in vivo. The following applies: rat, plasma; male Sprague Dawley rats, single SC 100 nmol/kg.
[8] abbreviates: cAMP, geometric mean ± SEM, read-out: hGcg-R EC50.
[9] abbreviates: cAMP, geometric mean ± SEM, read-out: hGIP-R EC50.
Setting [10] is: hGlp-1R EC50, cAMP, geometric mean ± SEM.

Like-named read-outs stand apart in the source and are kept apart here.

As usually defined, the Ki is the dissociation constant of the complex between target and ligand, obtained from inhibition or displacement. A high value points to weaker binding. A word on the EC50: it is the midpoint of the concentration-response curve. Turning to `CC(C)C[C@H](NC(=O)[C@H](Cc1c[nH]c2ccccc12)NC(=O)[C@H](C)NC(=O)[C@@H](NC(=O)[C@H](Cc1ccccc1)NC(=O)[C@H](CCC(=O)O)NC(=O)[C@H](CCCCNC(=O)COCCOCCNC(=O)COCCOCCNC(=O)CC[C@H](NC(=O)CCCCCCCCCCCCCCCCCCC(=O)O)C(=O)O)NC(=O)[C@H](C)NC(=O)[C@H](CCCCN)NC(=O)[C@H](CCCCN)NC(=O)C(C)(C)NC(=O)[C@H](CC(=O)O)NC(=O)[C@H](CC(C)C)NC(=O)[C@H](Cc1ccc(O)cc1)NC(=O)[C@H](CCCCN)NC(=O)[C@H](CO)NC(=O)[C@H](Cc1ccc(O)cc1)NC(=O)[C@H](CC(=O)O)NC(=O)[C@H](CO)NC(=O)[C@@H](NC(=O)[C@H](Cc1ccccc1)NC(=O)[C@@H](NC(=O)CNC(=O)[C@H](CCC(N)=O)NC(=O)C(C)(C)NC(=O)[C@@H](N)Cc1ccc(O)cc1)[C@@H](C)O)[C@@H](C)O)C(C)C)C(=O)N[C@@H](CC(C)C)C(=O)N[C@@H](CCC(=O)O)C(=O)N[C@@H](CCC(=O)O)C(=O)O` [Example 7], the Ki in data set [1] turned out to be 0.753 nM; in data set [3] it was 1.38 nM; in data set [5], 0.673 nM. Also, the values for the EC50 in data set [2] (setting [8]), in data set [4] (setting [9]) and in data set [6] (setting [10]) were 0.0166 ± 0.0004 nM, above 500 nM and above 100 nM, respectively.
For orientation: AUC(0-inf) means the area under the concentration-time curve extrapolated to infinity. Low readings indicate low exposure, high ones high exposure. Usually CL/F stands for clearance divided by bioavailability, as obtained after extravascular dosing. In general, Cmax refers to the highest concentration seen after dosing. One may read the Tmax as the time from dosing to the highest level. One may read the half-life as the time needed for the level to fall by half in the phase considered. Consider `CC(C)C[C@H](NC(=O)[C@H](Cc1c[nH]c2ccccc12)NC(=O)[C@H](CCC(=O)O)NC(=O)[C@@H](NC(=O)[C@H](Cc1ccccc1)NC(=O)[C@H](CCC(=O)O)NC(=O)[C@H](CCCCNC(=O)COCCOCCNC(=O)COCCOCCNC(=O)CC[C@H](NC(=O)CC[C@H](NC(=O)CCCCCCCCCCCCCCCCCCC(=O)O)C(=O)O)C(=O)O)NC(=O)[C@H](C)NC(=O)[C@H](CCCCN)NC(=O)[C@H](CCCCN)NC(=O)C(C)(C)NC(=O)[C@H](CC(=O)O)NC(=O)[C@H](CC(C)C)NC(=O)[C@H](Cc1ccc(O)cc1)NC(=O)[C@H](CCCCN)NC(=O)[C@H](CO)NC(=O)[C@H](Cc1ccc(O)cc1)NC(=O)[C@H](CC(=O)O)NC(=O)[C@H](CO)NC(=O)[C@@H](NC(=O)[C@H](Cc1ccccc1)NC(=O)[C@@H](NC(=O)CNC(=O)[C@H](CCC(N)=O)NC(=O)C(C)(C)NC(=O)[C@@H](N)Cc1ccc(O)cc1)[C@@H](C)O)[C@@H](C)O)C(C)C)C(=O)N[C@@H](CC(C)C)C(=O)N[C@@H](CCC(=O)O)C(=O)N[C@H](C(=O)NCC(=O)N1CCC[C@H]1C(=O)N[C@@H](CO)C(=O)N[C@@H](CO)C(=O)NCC(N)=O)[C@@H](C)O` [Example 5], for which the inhibition constant (Ki) in data set [1] was determined as 1.58 nM. Also, in data set [7], the total exposure AUC(0-inf) was determined as 12.9 µM·h, the CL/F was 0.13 mL/min/kg, the maximum concentration (Cmax) amounted to 237 nM and the Tmax is 24 h. The half-life in data set [7] is 22 h. In data set [2] (setting [8]), the EC50 came out at 0.016 ± 0.0038 nM. In data set [3], this compound displayed an inhibition constant (Ki) of 4.36 nM. For the same compound, the concentration for a half-maximal effect (EC50) in data set [4] (setting [9]) is above 500 nM. The compound further had a Ki in data set [5] of 1.59 nM. This compound gave an EC50 in data set [6] (setting [10]) of 27 ± 4.5 nM.
Take `CC(C)C[C@H](NC(=O)[C@H](Cc1c[nH]c2ccccc12)NC(=O)[C@H](CCC(=O)O)NC(=O)[C@@H](NC(=O)[C@H](Cc1ccccc1)NC(=O)[C@H](CCC(=O)O)NC(=O)[C@H](CCCCNC(=O)COCCOCCNC(=O)COCCOCCNC(=O)CC[C@H](NC(=O)CC[C@H](NC(=O)CCCCCCCCCCCCCCCCC(=O)O)C(=O)O)C(=O)O)NC(=O)[C@H](C)NC(=O)[C@H](CCCCN)NC(=O)[C@H](CCCCN)NC(=O)C(C)(C)NC(=O)[C@H](CC(=O)O)NC(=O)[C@H](CC(C)C)NC(=O)[C@H](Cc1ccc(O)cc1)NC(=O)[C@H](CCCCN)NC(=O)[C@H](CO)NC(=O)[C@H](Cc1ccc(O)cc1)NC(=O)[C@H](CC(=O)O)NC(=O)[C@H](CO)NC(=O)[C@H](CC(C)C)NC(=O)[C@H](Cc1ccccc1)NC(=O)[C@@H](NC(=O)CNC(=O)[C@H](CCC(N)=O)NC(=O)C(C)(C)NC(=O)[C@@H](N)Cc1ccc(O)cc1)[C@@H](C)O)C(C)C)C(=O)N[C@@H](CC(C)C)C(=O)N[C@@H](CCC(=O)O)C(=O)N[C@H](C(=O)NCC(=O)N1CCC[C@H]1C(=O)N[C@@H](CO)C(=O)N[C@@H](CO)C(=O)NCC(=O)N[C@@H](C)C(=O)N1CCC[C@H]1C(=O)N1CCC[C@H]1C(=O)N1CCC[C@H]1C(=O)N[C@@H](CO)C(N)=O)[C@@H](C)O` [Example 3]: the inhibitory constant (Ki) in data set [1] is 0.174 nM; in data set [3] it was 1.56 ± 0.13 nM; in data set [5], 0.287 ± 0.171 nM. Further, in data set [7], the AUC(0-inf) came out at 11.1 µM·h. Besides, the CL/F in data set [7] was 0.153 mL/min/kg. The compound also yielded a Cmax in data set [7] of 394 nM. For the same compound, the time to peak (Tmax) in data set [7] turned out to be 8 h. In addition, the half-life in data set [7] was 11 h. Moreover, the EC50 in data set [2] (setting [8]) is 0.0034 ± 0.0001 nM; in data set [2] (sample C6.5-4 C.-4 wk, N = 2 ± SD, read-out: EC50 Gcg Receptor Assay), 0.0369 ± 0.0296 nM; in data set [2] (sample C6.5-40 C.-4 wk, N = 2 ± SD, read-out: EC50 Gcg Receptor Assay) it was 0.0257 ± 0.0069 nM; in data set [2] (sample C6.5MT-4 C.-4 wk, N = 2 ± SD, read-out: EC50 Gcg Receptor Assay), 0.0193 ± 0.0011 nM; in data set [2] (sample C6.5MT-40 C.-4 wk, N = 2 ± SD, read-out: EC50 Gcg Receptor Assay) it was 0.0214 ± 0.0031 nM; in data set [2] (sample T7-4 C.-4 wk, N = 2 ± SD, read-out: EC50 Gcg Receptor Assay), 0.0143 ± 0.0034 nM. The concentration giving a half-maximal response (EC50) in data set [2] (sample T7-40 C.-4 wk, N = 2 ± SD, read-out: EC50 Gcg Receptor Assay) was 0.0249 ± 0.0029 nM; in data set [2] (sample T7m-4 C.-4 wk, N = 2 ± SD, read-out: EC50 Gcg Receptor Assay), 0.0211 ± 0.004 nM; in data set [2] (sample T7m-40 C.-4 wk, N = 2 ± SD, read-out: EC50 Gcg Receptor Assay), 0.0211 ± 0.0051 nM; in data set [4] (setting [9]), above 500 nM; in data set [4] (sample C6.5-4 C.-4 wk, read-out: EC50 GIP Receptor Assay), above 100 nM; in data set [4] (sample C6.5-40 C.-4 wk, read-out: EC50 GIP Receptor Assay), above 100 nM. Further, the concentration for a half-maximal effect (EC50) was above 100 nM in data set [4] (sample C6.5MT-4 C.-4 wk, read-out: EC50 GIP Receptor Assay); above 100 nM in data set [4] (sample C6.5MT-40 C.-4 wk, read-out: EC50 GIP Receptor Assay); above 100 nM in data set [4] (sample T7-4 C.-4 wk, N = 2 ± SD, *N = 1, read-out: EC50 GIP Receptor Assay); above 100 nM in data set [4] (sample T7-40 C.-4 wk, N = 2 ± SD, *N = 1, read-out: EC50 GIP Receptor Assay); above 100 nM in data set [4] (sample T7m-4 C.-4 wk, N = 2 ± SD, *N = 1, read-out: EC50 GIP Receptor Assay); above 100 nM in data set [4] (sample T7m-40 C.-4 wk, N = 2 ± SD, *N = 1, read-out: EC50 GIP Receptor Assay). The EC50 is above 100 nM in data set [6] (EC50 GLP-1 Receptor Assay, sample C6.5-4 C.-4 wk, N = 2 ± SD); above 100 nM in data set [6] (EC50 GLP-1 Receptor Assay, sample C6.5-40 C.-4 wk, N = 2 ± SD); above 100 nM in data set [6] (EC50 GLP-1 Receptor Assay, sample C6.5MT-4 C.-4 wk, N = 2 ± SD); above 100 nM in data set [6] (EC50 GLP-1 Receptor Assay, sample C6.5MT-40 C.-4 wk, N = 2 ± SD); above 100 nM in data set [6] (EC50 GLP-1 Receptor Assay, sample T7-4 C.-4 wk, N = 2 ± SD, *N = 1); above 100 nM in data set [6] (EC50 GLP-1 Receptor Assay, sample T7-40 C.-4 wk, N = 2 ± SD, *N = 1). In addition, the EC50 is above 100 nM in data set [6] (EC50 GLP-1 Receptor Assay, sample T7m-4 C.-4 wk, N = 2 ± SD, *N = 1); above 100 nM in data set [6] (EC50 GLP-1 Receptor Assay, sample T7m-40 C.-4 wk, N = 2 ± SD, *N = 1); above 100 nM in data set [6] (setting [10]).

The record behind these values is patent US9764004B2 (Eli Lilly and Company, priority 2015, dated 2017).
